Measurements published in article PMC6424229, “^68Ga-FAPI PET/CT: Biodistribution and Preliminary Dosimetry Estimate of 2 DOTA-Containing FAP-Targeting Agents in Patients with Various Cancers” (Journal of Nuclear Medicine, 2019).

How the values were obtained:
tumor lesions = conditions: in vivo
[1] = in vivo
[2] = in vivo; cited from earlier work

Tumor uptake, average SUVmax (tumor lesions): 7.41 | Background uptake in brain, average SUVmax [1]: 11.01 | Background uptake in liver, average SUVmax [1]: 2.77 | Background uptake in oral/pharyngeal mucosa, average SUVmax ([1]; po): 4.88
Substance: ^18F-FDG
Effective dose [2]: 2 mSv/100 MBq
